# scFv variants of Ab-14 (light chain) against a SARS-CoV-2 spike peptide

The target is the same throughout: PDVDLGDISGINAS, from the HR2 region of SARS-CoV-2 spike.

Each scFv is VH, the linker GGGGSGGGGSGGGGS, VL, as in the parent Ab-14, and differs from it in the CDRs of the light chain only.
VH: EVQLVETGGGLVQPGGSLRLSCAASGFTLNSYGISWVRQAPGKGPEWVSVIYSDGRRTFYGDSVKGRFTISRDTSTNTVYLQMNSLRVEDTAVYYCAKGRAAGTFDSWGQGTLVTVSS
VL: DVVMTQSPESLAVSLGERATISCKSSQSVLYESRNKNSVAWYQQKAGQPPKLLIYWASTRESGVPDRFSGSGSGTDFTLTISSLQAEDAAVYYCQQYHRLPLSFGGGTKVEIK

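Phage display of a naive human antibody library on the peptide gave the parent. Designed CDR sequences, proposed from the first random library and measured here. Several design methods are mixed in this list. In AlphaSeq, yeast of one mating type display the scFv and yeast of the other type display the target. Mating (16 h, 30 °C) was followed by selection of diploids and sequencing of their barcodes. A regression on co-assayed BCL2-family reference pairs converts the normalised counts of each replicate to an apparent Kd. Each pool was mated in six replicate cultures.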

Variants are written as CDR1, CDR2 and CDR3 of the light chain (limits as in the source). Parent: KSSQSVLYESRNKNSVA, WASTRES, QQYHRLPLS. This list holds designs with more than six substitutions. Values are log10 of the apparent Kd in nM; lower means stronger binding. The mean shown is taken over the replicates in which the pair was detected.

- KLMQEMLYESRMDNSVA / NASQREE / QQYHRLPLS -> 0.66 (6 of 6 replicates; controls 1 of 18)
- HIDSQEVGTIGAESNVA / ETNTLLY / QQYSKLPLS -> 1.83 (6 of 6 replicates; controls 0 of 18)
- KVSQSQDYESRNKNSVA / QASQREQ / QQYHRLPLY -> 0.15 (6 of 6 replicates; controls 1 of 18)
- KLVPSELYESRQSNSVA / NASLRES / QQYHRLPLS -> 0.08 (6 of 6 replicates; controls 0 of 18)
- ALSQSMDMTSKNVNSVA / DLTTRGN / QQYHRLPLS -> -0.22 (6 of 6 replicates; controls 1 of 18)
- SVGWAHENGDNKMNNIA / DTTHLAY / QQYSRLPIT -> 0.53 (6 of 6 replicates; controls 1 of 18)
- KFFQSELDEMRNDNSVA / NASTRLS / QQYHRLPLS -> 0.06 (6 of 6 replicates; controls 2 of 18)
- KLSMVHGHLSMAENNVA / EMVTREK / QQYNRLPLS -> 0.47 (6 of 6 replicates; controls 0 of 18)
- IVSQLMLWGLHAKNSIA / EAETRGN / QQYDRLPLF -> 1.57 (1 of 6 replicates; controls 1 of 18)
- TIGPMLTTESRNKNSVA / GMQTRES / QQYHRLPLS -> 0.05 (6 of 6 replicates; controls 0 of 18)
- TIAQSVNMTGLNRNSVA / QAEERIE / QQYHRLPLS -> 1.66 (6 of 6 replicates; controls 0 of 18)
- HILQNMTYESRNINSVA / HQSTRED / QQYHSLPLS -> 1.59 (6 of 6 replicates; controls 0 of 18)
- IFSQSVLMGNLTKNSVA / QASQRFN / QQYHRLPLI -> 0.87 (6 of 6 replicates; controls 0 of 18)
- KLSQSQWYESRNSNSVA / NASNRLS / QQYHRLPLS -> -0.19 (6 of 6 replicates; controls 0 of 18)
- KLQWYPLGIRDTGSAVA / EAATKYN / QQYMRLPLM -> 0.61 (6 of 6 replicates; controls 0 of 18)
- QLSMITGHQSMIKNNVA / EMETREN / QQYDRLPLS -> 0.59 (6 of 6 replicates; controls 1 of 18)
- KLSMQVMMWSRNTNSVA / EANTREE / QQYHRLPLS -> 0.67 (6 of 6 replicates; controls 1 of 18)
- KLPHLSFVHDRMKNNVA / DLNRKAA / QQYNRLPLT -> 0.27 (6 of 6 replicates; controls 0 of 18)
- KISQSVLMESCNVNNVA / NASTRED / QQYHRLPLS -> 0.39 (6 of 6 replicates; controls 0 of 18)
- HMSALTLQGMKHRNSVA / QMTTREK / QQYDHLPLS -> 0.53 (6 of 6 replicates; controls 4 of 18)
- MISDLTMYGSRNKNSVA / DLSTRGS / QQYYRLPLS -> -0.01 (6 of 6 replicates; controls 0 of 18)
- HLGLATMLESSVRNSVA / NNSTRED / QQYDRLPLS -> 1.42 (6 of 6 replicates; controls 0 of 18)
- MISDLTMYGSMNKNSVA / DLSTRGS / QQYHRLPLS -> 0.16 (6 of 6 replicates; controls 4 of 18)
- KAQQSCLYESRNQNSVA / SASQRLS / QQYHRLPLS -> 0.29 (6 of 6 replicates; controls 1 of 18)
- ILYDSVGTLARNKNSVA / DNSTRES / QQYDRLPLS -> 1.47 (4 of 6 replicates; controls 3 of 18)
- RLSVNLDAGNISTNAIA / EGKSVEQ / QQYMRLPLG -> 1.21 (6 of 6 replicates; controls 3 of 18)
- KLQQGYWYESRNKNSVA / WASTREV / QQYWRLPLS -> 1.55 (4 of 6 replicates; controls 1 of 18)
- KLDQQTLYETRNKNSVA / QASTREE / QQYHRLPLS -> -0.49 (6 of 6 replicates; controls 1 of 18)
- KLTMMYQHTSRNKNNIA / ERSTREE / QQYHNLPLS -> -0.18 (6 of 6 replicates; controls 0 of 18)
- HAYQSGLYESRNQNSVA / SASMRES / QQYHRLPLS -> 0.54 (6 of 6 replicates; controls 2 of 18)
- QIYQAMHTLTQMKDNVA / DVNERGN / QQYFRLPLS -> 0.20 (6 of 6 replicates; controls 0 of 18)
- KLQQLGLYEQRNLNSVA / SASTRCS / QQYHRLPLS -> 0.80 (6 of 6 replicates; controls 0 of 18)
- KLREVIHVESKQKNNVA / DNSTRES / QDYHRLPLS -> 1.59 (6 of 6 replicates; controls 0 of 18)
- TISMHTSLFSQTINNVA / EVSTRIQ / QQYDRLPLI -> 1.87 (6 of 6 replicates; controls 1 of 18)
- MVNGIMDHLSKQTNNVA / ETTTREE / QQYDRLPLS -> 1.09 (6 of 6 replicates; controls 1 of 18)
- KISQMVNYESTHVNAVA / QMSTREE / QQYFRLPLS -> 0.13 (6 of 6 replicates; controls 1 of 18)
- KFMQSVPYESRNLNNVA / HGSTRCS / QQYHRLPLS -> 0.60 (6 of 6 replicates; controls 3 of 18)
- KLSGSMLYESRMKNSVA / QASVRMS / QQYHRLPLS -> 0.38 (6 of 6 replicates; controls 0 of 18)
- KISQSVLYQARNQNSVA / SASTRLH / QQYHRLPLS -> 0.35 (6 of 6 replicates; controls 0 of 18)
- FFGYDIFQENMKAKSIA / EANMRVY / QQYAILPLT -> 0.95 (6 of 6 replicates; controls 1 of 18)
- QLSLMLNDMDTRMWAVA / EGNQAKE / QDYHRLPLM -> 1.49 (1 of 6 replicates; controls 0 of 18)
- FIDGNYYDKYQASNSIA / DEAHIQA / QQYDLLPLS -> 2.44 (5 of 6 replicates; controls 0 of 18)

Three control strains display no target. For all light chain designs, 4% of the pairings with them gave a signal, with a median of 2.64 and one signal in twenty below 1.59, so weak values seen in few replicates may be background. Also given: how often the same scFv was detected with the empty control strains. The range of this assay differs from that of the first round, and the authors advise against merging the two. The authors averaged sequences with at least three values out of six and counted those with two or fewer as poor binders.

Reference: Li et al. 2023, doi:10.1038/s41467-023-39022-2. File: FLAb, binding data.